Measured values as given in ChEMBL document CHEMBL4507317, “Data for DCP probe BAY-899” (2021).

Test system: Receptor-type tyrosine-protein kinase FLT3 (Homo sapiens), P36888 [K663Q]
Settings: Compound concentration 1000.0 nM

Compound `O=C(Nc1ccc(Oc2ccc(F)cc2)cc1)N1CCc2ncccc2[C@H]1c1ccc(F)cc1` [BAY-897] has a residual activity of 41%.
